Values quoted from earlier work as cited in patent US20250064807A1, “Promoting Hair Growth and Treatment of Hair Loss or Excessive Hair Shedding” (Samson Clinical Pty Ltd, priority 2017, published 2025).

Conditions: cited from earlier work

For `Nc1cc(N2CCCCC2)nc(N)[n+]1[O-]` [minoxidil, 2,4-Diamino-6-piperidinopyrimidine 3-oxide], the “share of minoxidil absorbed topically (cutaneous absorption)” value (in vivo) is listed as 1-4%, the “share of orally administered dose absorbed gastrointestinally” value (oral dose as approved by the TGA for severe refractory hypertension) is listed as 95% and the “share of minoxidil absorbed topically (cutaneous absorption)” value (topical application) is listed as 1.5-4%.

Where two headings read alike, the source gives them in different places.
